Molecular target: CDK19 (Homo sapiens (Human), UniProt Q9BWU1)
Assay: DiscoverX Kd assay
Conditions: average from duplicate measurements

Amino acid sequences for entries named in this document (tags omitted). A change or cut given only in a name is not applied to a line headed by its entry.
UniProt Q9BWU1: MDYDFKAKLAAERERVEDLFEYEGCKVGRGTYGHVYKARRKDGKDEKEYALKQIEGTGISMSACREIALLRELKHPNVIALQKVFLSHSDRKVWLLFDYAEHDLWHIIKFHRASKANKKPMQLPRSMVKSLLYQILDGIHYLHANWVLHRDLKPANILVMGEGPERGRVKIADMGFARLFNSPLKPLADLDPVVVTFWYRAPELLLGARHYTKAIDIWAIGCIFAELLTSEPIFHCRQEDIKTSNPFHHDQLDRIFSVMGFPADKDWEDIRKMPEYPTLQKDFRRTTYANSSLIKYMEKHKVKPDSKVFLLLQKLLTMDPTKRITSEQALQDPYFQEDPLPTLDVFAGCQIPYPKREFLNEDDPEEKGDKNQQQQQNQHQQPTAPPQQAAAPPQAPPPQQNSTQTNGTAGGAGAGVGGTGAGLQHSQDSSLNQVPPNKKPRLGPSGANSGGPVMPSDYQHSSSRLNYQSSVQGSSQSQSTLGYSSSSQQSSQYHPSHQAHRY

Kd: 23 nM
SMILES: CN1CCN(C(=O)c2ccc3cc(CCNc4ncnc5ccc(C#N)cc45)ccc3c2)CC1 [Senexin B, reference compound]
